Test results reported in patent US9969726B2, “Metabotropic glutamate receptor negative allosteric modulators (NAMS) and uses thereof” (Sanford-Burnham Medical Research Institute, priority 2014, dated 2018).
Like-named read-outs stand apart in the source and are kept apart here.

By UniProt entry, the sequences of proteins in these tests, tags left out. Residues count along the entry.
UniProt P31421, 19-872: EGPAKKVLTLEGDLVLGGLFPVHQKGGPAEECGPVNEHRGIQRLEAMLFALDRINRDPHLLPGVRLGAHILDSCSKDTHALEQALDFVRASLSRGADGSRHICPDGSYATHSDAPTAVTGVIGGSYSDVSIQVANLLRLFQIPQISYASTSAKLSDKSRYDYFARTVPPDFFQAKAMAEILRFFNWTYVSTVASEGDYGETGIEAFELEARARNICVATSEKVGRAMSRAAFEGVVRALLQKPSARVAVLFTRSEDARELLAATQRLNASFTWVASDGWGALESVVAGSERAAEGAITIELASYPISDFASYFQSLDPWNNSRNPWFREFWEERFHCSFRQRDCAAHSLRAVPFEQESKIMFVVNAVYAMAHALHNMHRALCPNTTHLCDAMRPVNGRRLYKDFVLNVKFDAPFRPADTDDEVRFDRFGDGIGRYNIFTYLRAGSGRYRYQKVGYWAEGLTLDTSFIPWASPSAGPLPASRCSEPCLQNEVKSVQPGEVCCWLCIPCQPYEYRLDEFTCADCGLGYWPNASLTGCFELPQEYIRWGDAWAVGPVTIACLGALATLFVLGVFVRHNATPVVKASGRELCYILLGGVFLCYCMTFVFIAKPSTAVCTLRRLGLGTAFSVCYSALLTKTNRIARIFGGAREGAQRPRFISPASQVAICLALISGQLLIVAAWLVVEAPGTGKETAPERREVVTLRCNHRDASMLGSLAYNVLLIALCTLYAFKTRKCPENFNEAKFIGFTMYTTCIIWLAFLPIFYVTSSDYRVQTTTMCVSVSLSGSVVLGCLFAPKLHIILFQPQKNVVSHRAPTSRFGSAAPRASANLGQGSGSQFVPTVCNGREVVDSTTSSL
UniProt P31422, 23-879: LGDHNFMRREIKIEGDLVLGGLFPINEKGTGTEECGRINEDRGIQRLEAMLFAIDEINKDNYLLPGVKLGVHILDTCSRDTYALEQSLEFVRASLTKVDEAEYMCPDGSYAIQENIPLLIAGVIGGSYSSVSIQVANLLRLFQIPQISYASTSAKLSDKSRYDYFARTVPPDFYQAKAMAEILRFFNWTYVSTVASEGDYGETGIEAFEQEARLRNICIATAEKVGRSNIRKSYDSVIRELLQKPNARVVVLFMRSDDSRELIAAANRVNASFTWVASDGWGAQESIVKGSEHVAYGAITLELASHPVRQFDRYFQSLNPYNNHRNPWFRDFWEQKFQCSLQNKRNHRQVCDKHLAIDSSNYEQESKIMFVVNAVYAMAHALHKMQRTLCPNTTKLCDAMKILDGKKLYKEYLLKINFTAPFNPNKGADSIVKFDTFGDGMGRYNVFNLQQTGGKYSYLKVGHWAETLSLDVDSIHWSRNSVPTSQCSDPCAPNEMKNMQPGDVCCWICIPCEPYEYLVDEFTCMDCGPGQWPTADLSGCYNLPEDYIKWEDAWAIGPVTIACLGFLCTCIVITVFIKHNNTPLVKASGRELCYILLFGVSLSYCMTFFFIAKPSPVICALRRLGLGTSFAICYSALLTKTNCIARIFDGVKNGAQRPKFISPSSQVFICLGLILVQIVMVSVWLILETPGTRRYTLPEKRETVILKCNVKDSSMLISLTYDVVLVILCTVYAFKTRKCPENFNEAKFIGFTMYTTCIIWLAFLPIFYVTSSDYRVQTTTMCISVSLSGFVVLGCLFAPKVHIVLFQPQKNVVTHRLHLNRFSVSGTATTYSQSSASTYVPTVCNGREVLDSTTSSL

How the values were obtained:
[1] = molecular target: rat mGlu2 receptor (Rattus norvegicus (Rat), UniProt P31421); test: mGlu2 in vitro GIRK thallium flux assay; assay type: cell-based; conditions: NAM, EC80 glutamate, HEK-293 GIRK cells
Description: All cell culture reagents were purchased from Invitrogen Corp. (Carlsbad, Calif.) unless otherwise noted. Compound activity at the group II (mGlu2 and mGlu3) mGlus was assessed using thallium flux through GIRK channels. Briefly, cells were plated into 384-well, black-walled, clear-bottomed poly-D-lysine-coated plates at a density of 15,000 cells/20 μL/well in DMEM containing 10% dialyzed FBS, 20 mM HEPES, and 100 units/mL penicillin/streptomycin (assay media). Plated cells were incubated overnight at 37° C. in the presence of 5% CO2. […] Cells were incubated for 1 h at room temperature, and the dye exchanged to assay buffer using an ELX405, leaving 20 μL/well. Test compounds were diluted to 2 times their final desired concentration in assay buffer (0.3% DMSO final concentration). […] Cell plates and compound plates were loaded onto a kinetic imaging plate reader (FDSS 6000 or 7000; Hamamatsu Corporation, Bridgewater, N.J.). Appropriate baseline readings were taken (10 images at 1 Hz; excitation, 470±20 nm; emission, 540±30 nm) and test compounds were added in a 20 μL volume and incubated for either 2.5 min or 60 min as indicated before the addition of 10 μL of thallium buffer with or without agonist. After the addition of agonist, data were collected for approximately an additional 2.5 min. Data were analyzed using Excel (Microsoft Corp, Redmond, Wash.). The slope of the fluorescence increase beginning 5 s after thallium/agonist addition and ending 15 s after thallium/agonist addition was calculated, corrected to vehicle and maximal agonist control slope values, and plotted in using either XLfit (ID Business Solutions Ltd) or Prism software (GraphPad Software, San Diego, Calif.) to generate concentration-response curves. Potencies were calculated from fits using a four-point parameter logistic equation. For concentration-response curve experiments, compounds were serially diluted 1:3 into 10 point concentration response curves and were transferred to daughter plates using an Echo acoustic plate reformatter (Labcyte, Sunnyvale, Calif.). Test compounds were applied and followed by EC80 concentrations of glutamate.

[2] = molecular target: rat mGlu3 receptor (Rattus norvegicus (Rat), UniProt P31422); test: mGlu3 in vitro GIRK thallium flux assay; assay type: cell-based; conditions: head printed mGlu2 but taken as mGlu3; 60 min compound incubation; EC80 glutamate
Description: All cell culture reagents were purchased from Invitrogen Corp. (Carlsbad, Calif.) unless otherwise noted. Compound activity at the group II (mGlu2 and mGlu3) mGlus was assessed using thallium flux through GIRK channels. Briefly, cells were plated into 384-well, black-walled, clear-bottomed poly-D-lysine-coated plates at a density of 15,000 cells/20 μL/well in DMEM containing 10% dialyzed FBS, 20 mM HEPES, and 100 units/mL penicillin/streptomycin (assay media). Plated cells were incubated overnight at 37° C. in the presence of 5% CO2. […] Cells were incubated for 1 h at room temperature, and the dye exchanged to assay buffer using an ELX405, leaving 20 μL/well. Test compounds were diluted to 2 times their final desired concentration in assay buffer (0.3% DMSO final concentration). […] Cell plates and compound plates were loaded onto a kinetic imaging plate reader (FDSS 6000 or 7000; Hamamatsu Corporation, Bridgewater, N.J.). Appropriate baseline readings were taken (10 images at 1 Hz; excitation, 470±20 nm; emission, 540±30 nm) and test compounds were added in a 20 μL volume and incubated for either 2.5 min or 60 min as indicated before the addition of 10 μL of thallium buffer with or without agonist. […] Data were analyzed using Excel (Microsoft Corp, Redmond, Wash.). […] Potencies were calculated from fits using a four-point parameter logistic equation. […]

[3] = 2.5 min compound incubation, read-out: mGlu2 EC50 (μM) (2.5 min)
[4] = 60 min compound incubation, read-out: mGlu2 EC50 (μM) (60 min)

SMILES	EC50 [1, 3] [µM]	EC50 [1, 4] [µM]	also measured
O=C(O)c1cccc(-c2cccc(-c3csc(-c4ccccc4)n3)c2)c1 [Example 28, 3′-(2-Phenylthiazol-4-yl)biphenyl-3-carboxylic Acid]	0.42	–	–
O=C(O)c1cc(-c2cccc(-c3nc(-c4ccoc4)cc(C(F)(F)F)n3)c2)ccc1F [Example 94, 4-Fluoro-3′-(4-(furan-3-yl)-6-(trifluoromethyl)pyrimidin-2-yl)biphenyl-3-carboxylic Acid]	0.15	–	–
O=C(O)c1cc(-c2cccc(-c3nc(-c4sccc4Cl)cc(C(F)(F)F)n3)c2)ccc1F [Example 107, 3′-(4-(3-Chlorothiophen-2-yl)-6-(trifluoromethyl)pyrimidin-2-yl)-4-fluorobiphenyl-3-carboxylic Acid]	–	0.42	–
O=C(O)c1cc(-c2cccc(-c3nc(-c4ccc(C(F)(F)F)cc4)cc(C(F)(F)F)n3)c2)ccc1F [Example 108, 4-Fluoro-3′-(4-(trifluoromethyl)-6-(4-(trifluoromethyl)phenyl)pyrimidin-2-yl)biphenyl-3-carboxylic Acid]	–	0.15	–
O=C(O)c1ccc(F)c(-c2cccc(-c3nc(-c4ccoc4)cc(C(F)(F)F)n3)c2)c1 [Example 114, 6-Fluoro-3′-(4-(furan-3-yl)-6-(trifluoromethyl)pyrimidin-2-yl)biphenyl-3-carboxylic Acid]	–	0.15	–
O=C(O)c1cc(-c2cccc(-c3nc(-c4ccsc4)cc(C(F)(F)F)n3)c2)ccc1F [Example 122, 4-Fluoro-3′-(4-(thiophen-3-yl)-6-(trifluoromethyl)pyrimidin-2-yl)-[1,1′-biphenyl]-3-carboxylic Acid]	0.15	–	–
Cc1cc2c(cc1C(F)(F)F)NC(=O)CC(c1cccc(Oc3ccccn3)c1)=N2 [Example 150, 7-Methyl-4-(3-(pyridin-2-yloxy)phenyl)-8-(trifluoromethyl)-1H-benzo[b][1,4]diazepin-2(3H)-one]	–	0.42	–
O=C1CC(c2ccnc(Cl)c2)=Nc2ccc(C(F)(F)F)cc2N1 [Example 189, 4-(2-Chloropyridin-4-yl)-8-(trifluoromethyl)-1,3-dihydro-2H-benzo[b][1,4]diazepin-2-one]	–	–	EC50 [2]: 0.42 µM
